Measured values published in paper PMC4061505 (Anesthesiology, 2014).

Test system: mTOR and related proteins
Test: Western blot of phosphorylated mTOR and related proteins in rat brain
Conditions: 40 mg·kg^−1 intraperitoneal
[1] = did not reach statistical significance
[2] = maximum at the 30- and 60-min time-points, p<0.05

Structure (SMILES): CNC1(c2ccccc2Cl)CCCCC1=O (racemic) [(R,S)-ketamine]
- Increase in average expression of p4E-BP1 [1]: ~ 1.5 fold
- Increase in average expression of pAkt [1]: ~ 1.3 fold
- Increase in average expression of pERK1/2 [1]: ~ 2 fold
- Increase in pmTOR [2]: ~ 2.5 fold
- Increase in pp70S6K [2]: ~ 2.5 fold
- Increase in phosphorylation of mTOR and its downstream targets (rat pre-frontal cortex, 60-min post-administration, p<0.05): > 2.5 fold
